The values that follow are results of earlier work, collected in patent publication US20240091148A1, “EUTECTIC SOLVENTS COMPRISING PHARMACEUTICAL AGENTS, AND METHODS OF MAKING AND USE THEREOF” (Novilla Pharmaceuticals, Inc., priority 2018, published 2024).

Each structure is given as a SMILES string.

For this series the following is noted: values stated in the description, no method or source given.

Turning to `CN(C)CCC(c1ccccc1)c1ccccn1` (stereo not shown) [pheniramine], the pKa is 9.3-9.4.
